According to PubChem BioAssay AID1422 (Emory University Molecular Libraries Screening Center, 2008):
This is a selection; strong and weak results do not stand in their true shares. Calls of active or inactive are those of the source.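 How the source made its calls: active means percent inhibition above 40 after rounding to a whole number; inactive means the rest.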

The chains behind the UniProt entries cited, without tags or fusion partners.
UniProt P43116, whole entry: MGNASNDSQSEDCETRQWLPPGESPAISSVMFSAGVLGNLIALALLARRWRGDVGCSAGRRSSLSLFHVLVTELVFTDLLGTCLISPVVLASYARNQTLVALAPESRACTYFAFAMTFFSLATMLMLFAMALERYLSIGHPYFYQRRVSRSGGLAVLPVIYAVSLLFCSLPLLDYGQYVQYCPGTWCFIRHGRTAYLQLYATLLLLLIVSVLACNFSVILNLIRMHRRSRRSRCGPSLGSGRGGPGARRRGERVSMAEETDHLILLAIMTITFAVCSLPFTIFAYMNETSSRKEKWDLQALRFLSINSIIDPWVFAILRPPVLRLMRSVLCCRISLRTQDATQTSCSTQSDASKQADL

Target: Prostaglandin E2 receptor EP2 subtype (Homo sapiens) (UniProt P43116)
Experiment: human EP2 receptor antagonists, primary screen, TR-FRET cAMP, C6 glioma cells (AID 1422);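 further: rat C6 glioma host cells with rolipram phosphodiesterase inhibitor present; the protocol text gives 20 µM as final concentration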
Details: C6 glioma cells expressing human EP2, cAMP TR-FRET; at 25 µM; stronger effect = higher value; cells stimulated with saturating PGE2

Row | Compound | inhibition
1 | O=C(O)C1(Nc2ccccc2)CCN(Cc2ccccc2)CC1 | inactive: 11.5%
2 | CC(C)(C)OC(=O)N1CCC(Nc2ccccc2)CC1 | inactive: -0.72%
3 | CCOc1ncccc1C(=O)NCC1(N2CCOCC2)CCCCC1 | inactive: 2.79%
4 | CCCOc1ccc(C)cc1CN(CCCl)CCCl | inactive: 14.4%
5 | CCC(CO)(C(=O)OC1CN2CCC1CC2)c1ccccc1 (stereo unspecified) | inactive: 10.9%
6 | COc1cc(OC)cc(C(=O)NCC2(N3CCOCC3)CCCCC2)c1 | inactive: 5.98%
7 | Fc1ccccc1NC1CCN(Cc2ccccc2)CC1 | inactive: -2.07%
8 | CN(C)c1ccc(C(=O)NCC2(N3CCCCC3)CCCCC2)cc1 | inactive: 6.96%
9 | CCN1CCC(Nc2cccc(F)c2)CC1 | inactive: 5.62%
10 | N#Cc1ccc(C(=O)NCC2(N3CCCCC3)CCCCC2)cc1 | inactive: 5.37%
11 | c1ccc(CN2CCC(Nc3ccccc3)CC2)cc1 | inactive: 10.9%
12 | COc1ccc(C(=O)NCC2(N3CCOCC3)CCCCC2)cc1OC | inactive: 10.9%
13 | O=C(OC1CN2CCC1CC2)C1c2ccccc2C=Cc2ccccc21 (stereo unspecified) | inactive: 6.91%
14 | CN(C)c1cccc(C(=O)NCC2(N3CCCCC3)CCCCC2)c1 | inactive: 6.43%
15 | COc1ccc(CN(CCCl)CCCl)cc1Cl | inactive: 14.1%
16 | CC(C)c1ccc(NC2CCN(C(=O)OC(C)(C)C)CC2)cc1 | inactive: 8.27%

Row | Compound | inhibition
17 | CN1CCC(Nc2cccc(F)c2)CC1 | inactive: 4.15%
18 | NC1CCCCC1.NP(=O)(O)N(CCCl)CCCl | inactive: 6.48%
19 | O=C(NCC1(N2CCCCC2)CCCCC1)c1cccc([N+](=O)[O-])c1 | inactive: 8.37%
20 | N#CC1(Nc2ccccc2)CCN(CCc2ccccc2)CC1 | inactive: 10.2%
21 | COc1ccc(NC2CCN(C(=O)OC(C)(C)C)CC2)cc1 | inactive: 5.88%
22 | CN1CCN(CCOC(=O)C(O)(c2ccccc2)c2ccccc2)CC1 | inactive: 8.65%
23 | O=C(NCC1(N2CCOCC2)CCCCC1)c1cc(=O)[nH]c2ccccc12 | inactive: 16.4%
24 | COc1ccc(NC2CCN(CCc3ccccc3)CC2)c(OC)c1 | inactive: 6.11%
25 | CCOc1ccc(C)cc1CN(CCCl)CCCl | inactive: 13.9%
26 | Cc1ccc(OCC(C)C)c(CN(CCCl)CCCl)c1 | inactive: 6.39%
27 | COc1ccc(C(=O)NCC2(N3CCCCC3)CCCCC2)c(OC)c1OC | inactive: 9.86%
28 | CCOC(=O)N1CCC(Nc2ccc(OC)cc2)CC1 | inactive: 4.94%
29 | N#CC1(Nc2ccccc2)CCN(Cc2ccccc2)CC1 | inactive: 7.91%
30 | O=C(OC1CN2CCC1CC2)C1c2ccccc2Oc2ccccc21 (stereo unspecified) | inactive: 1.39%
31 | O=C(NCC1(N2CCOCC2)CCCCC1)c1cc2ccccc2o1 | inactive: 16.1%
